In US20090099029:

Each substance was assayed against Bovine, dephosphorylated, Myelin Basic Protein (MBP) (UniProt P02687).
With CDK2/cyclin A the “MBP Kinase Activity” value was “Strong”. DYRK1A was tested, and the “MBP Kinase Activity” value was “Negative”. For PRKACA(PKA), the “MBP Kinase Activity” value was “Negative”. SRC was tested, and the “MBP Kinase Activity” value was “Strong”. SYK was tested, and the “MBP Kinase Activity” value was “Negative”.
